# According to ChEMBL document CHEMBL1155491, “Acylurea connected straight chain hydroxamates as novel histone deacetylase inhibitors: Synthesis, SAR, and in vivo antitumor activity” (Bioorg Med Chem Lett, 2010):
# Experiments:
# Histone deacetylase 8 = biological target: T1, Histone deacetylase 8 (Homo sapiens, UniProt Q9BY41); assay: Inhibition of HDAC8
# T1 sequence (Q9BY41 whole entry): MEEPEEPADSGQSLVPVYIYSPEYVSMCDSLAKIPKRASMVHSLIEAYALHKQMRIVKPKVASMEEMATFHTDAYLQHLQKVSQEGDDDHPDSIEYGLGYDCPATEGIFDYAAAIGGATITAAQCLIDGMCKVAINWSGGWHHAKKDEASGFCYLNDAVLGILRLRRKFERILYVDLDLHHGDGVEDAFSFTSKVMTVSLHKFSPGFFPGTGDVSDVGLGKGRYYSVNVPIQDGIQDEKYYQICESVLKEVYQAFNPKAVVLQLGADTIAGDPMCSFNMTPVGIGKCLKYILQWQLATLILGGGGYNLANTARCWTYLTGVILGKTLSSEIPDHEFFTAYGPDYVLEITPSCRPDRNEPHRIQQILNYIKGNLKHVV
# [1] = biological target: T2, Polyamine deacetylase HDAC10 (Homo sapiens, UniProt Q969S8); assay: Inhibition of HDAC10
# T2 sequence (Q969S8 whole entry): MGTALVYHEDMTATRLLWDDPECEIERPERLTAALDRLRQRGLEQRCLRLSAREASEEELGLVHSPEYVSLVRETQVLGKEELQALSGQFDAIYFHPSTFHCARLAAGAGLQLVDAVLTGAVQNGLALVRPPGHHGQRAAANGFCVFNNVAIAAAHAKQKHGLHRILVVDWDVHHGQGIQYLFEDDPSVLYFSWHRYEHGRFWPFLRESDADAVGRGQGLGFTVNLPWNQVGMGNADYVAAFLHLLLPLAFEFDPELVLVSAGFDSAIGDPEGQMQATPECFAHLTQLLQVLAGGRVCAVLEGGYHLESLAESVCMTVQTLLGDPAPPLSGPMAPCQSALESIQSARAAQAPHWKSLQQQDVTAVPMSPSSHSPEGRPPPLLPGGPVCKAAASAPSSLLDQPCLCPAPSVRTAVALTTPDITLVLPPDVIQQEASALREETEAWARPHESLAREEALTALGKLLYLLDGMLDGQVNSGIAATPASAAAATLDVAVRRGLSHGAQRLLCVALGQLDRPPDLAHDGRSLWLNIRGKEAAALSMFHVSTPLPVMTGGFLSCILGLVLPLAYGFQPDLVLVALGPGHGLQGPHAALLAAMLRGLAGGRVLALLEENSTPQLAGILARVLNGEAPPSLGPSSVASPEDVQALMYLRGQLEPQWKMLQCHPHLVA
compound,measurement,setting,value
O=C(CCCCCCC(=O)Nc1ccccc1)NO [VORINOSTAT],IC50,Histone deacetylase 8,0.272 µM
same,Ki,Histone deacetylase 8,0.205 µM
same,Ki,[1],0.05 µM
